Legend:
δ-opioid receptor = δ-opioid receptor (Rattus norvegicus, UniProt P33533); test: Rat brain δ-opioid receptor binding assay ([3H]DPDPE); conditions: read-out: DOR binding Ki, 10 nM solutions of the compounds
μ-opioid receptor = μ-opioid receptor (Rattus norvegicus, UniProt P33535); test: Rat brain μ-opioid receptor binding assay ([3H]DAMGO); conditions: read-out: MOR binding Ki, 10 nM solutions of the compounds

Sequences of proteins named here, by UniProt entry; tags and fusion partners are left off.
UniProt P33535, whole entry: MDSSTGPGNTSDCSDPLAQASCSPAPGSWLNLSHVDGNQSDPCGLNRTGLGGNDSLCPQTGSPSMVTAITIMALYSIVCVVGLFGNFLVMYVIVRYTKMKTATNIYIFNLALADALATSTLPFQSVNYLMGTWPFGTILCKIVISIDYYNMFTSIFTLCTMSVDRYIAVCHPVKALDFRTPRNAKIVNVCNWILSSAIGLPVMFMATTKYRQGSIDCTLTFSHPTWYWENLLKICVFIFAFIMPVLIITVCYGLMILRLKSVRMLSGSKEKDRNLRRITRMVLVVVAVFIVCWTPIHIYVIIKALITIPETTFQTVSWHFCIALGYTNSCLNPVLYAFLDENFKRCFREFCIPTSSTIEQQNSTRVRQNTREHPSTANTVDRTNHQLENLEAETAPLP

Row | SMILES | Ki (δ-opioid receptor) [nM] | Ki (μ-opioid receptor) [nM]
1 | CCNC(=O)c1ccc(C(=C2CC3CCC(C2)N3Cc2ccco2)c2ccc(C(=O)N(C)C)cc2)cc1 | 4.46 | 56.9
2 | CCNC(=O)c1ccc(C(=C2CC3CCC(C2)N3Cc2ccc3ccccc3n2)c2cccc(N)c2)cc1 | 3.89 | 34.4
3 | CCNC(=O)c1ccc(C(=C2CC3CCC(C2)N3Cc2cccs2)c2ccc(C(=O)N(C)C)cc2)cc1 | 0.45 | 6.69
4 | CCNC(=O)c1ccc(C(=C2CC3CCC(C2)N3Cc2nccs2)c2ccc(C(=O)N(C)C)cc2)cc1 | 0.19 | 254
5 | CCNC(=O)c1ccc(C(=C2CC3CCC(C2)N3Cc2ccc3ccccc3n2)c2c(C)cccc2C)cc1 | 44.9 | 12.5
6 | CCNC(=O)c1ccc(C(=C2CC3CCC(C2)N3Cc2ccsc2)c2ccc(C(=O)N(C)C)cc2)cc1 | 2.62 | 70.4
7 | CCNC(=O)c1ccc(C(=C2CC3CCC(C2)N3CCc2ccccc2)c2ccc(C(=O)N(C)C)cc2)cc1 | 0.96 | 35.3
8 | CCNC(=O)c1ccc(C(=C2CC3CCC(C2)N3Cc2csc([N+](=O)[O-])c2)c2cccc(NC(C)=O)c2)cc1 | 5.92 | 22.7
9 | CCNC(=O)c1ccc(C(=C2CC3CCC(C2)N3Cc2ccoc2)c2ccc(C(=O)N(C)C)cc2)cc1 | 4.57 | 6.7
10 | CCNC(=O)c1ccc(C(=C2CC3CCC(C2)N3CC=C(C)C)c2ccc(C(=O)N(C)C)cc2)cc1 | 1.98 | 11
